Laboratory results reported in patent US20250188098A1, “CARBORANE COMPOUNDS AND METHODS OF USE THEREOF” (Ohio State Innovation Foundation, priority 2023, published 2025).

Protein sequences, listed by entry. Tags and fused reporters are not part of them.
UniProt Q92731, whole entry: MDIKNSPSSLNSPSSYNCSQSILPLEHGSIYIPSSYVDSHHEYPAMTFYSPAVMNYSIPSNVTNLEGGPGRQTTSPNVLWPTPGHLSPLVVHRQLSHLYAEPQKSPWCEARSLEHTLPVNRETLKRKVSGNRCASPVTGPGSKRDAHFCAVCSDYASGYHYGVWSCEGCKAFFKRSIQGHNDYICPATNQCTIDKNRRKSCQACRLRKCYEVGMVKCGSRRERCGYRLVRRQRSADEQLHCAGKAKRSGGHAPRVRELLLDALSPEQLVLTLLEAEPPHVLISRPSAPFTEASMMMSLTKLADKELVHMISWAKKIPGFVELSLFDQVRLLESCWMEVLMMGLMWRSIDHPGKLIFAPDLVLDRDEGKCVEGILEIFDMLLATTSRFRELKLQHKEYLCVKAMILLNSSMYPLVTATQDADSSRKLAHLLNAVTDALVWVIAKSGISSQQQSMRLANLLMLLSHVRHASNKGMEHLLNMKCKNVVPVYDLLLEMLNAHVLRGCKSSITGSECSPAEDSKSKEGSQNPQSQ
UniProt O08537, whole entry: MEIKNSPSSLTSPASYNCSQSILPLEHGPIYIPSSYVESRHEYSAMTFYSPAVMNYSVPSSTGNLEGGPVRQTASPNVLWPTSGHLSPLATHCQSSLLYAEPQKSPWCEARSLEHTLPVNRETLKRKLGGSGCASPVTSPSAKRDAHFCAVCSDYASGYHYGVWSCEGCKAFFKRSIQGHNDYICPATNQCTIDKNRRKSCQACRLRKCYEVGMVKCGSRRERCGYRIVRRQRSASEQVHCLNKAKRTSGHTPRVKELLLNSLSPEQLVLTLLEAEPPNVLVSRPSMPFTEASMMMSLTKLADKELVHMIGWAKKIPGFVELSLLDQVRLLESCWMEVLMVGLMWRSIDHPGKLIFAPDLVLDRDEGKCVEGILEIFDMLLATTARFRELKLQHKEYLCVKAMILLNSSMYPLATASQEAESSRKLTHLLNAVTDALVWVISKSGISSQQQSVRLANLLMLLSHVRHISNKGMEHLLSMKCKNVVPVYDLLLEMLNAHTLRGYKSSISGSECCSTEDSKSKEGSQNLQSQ
UniProt P19785, whole entry: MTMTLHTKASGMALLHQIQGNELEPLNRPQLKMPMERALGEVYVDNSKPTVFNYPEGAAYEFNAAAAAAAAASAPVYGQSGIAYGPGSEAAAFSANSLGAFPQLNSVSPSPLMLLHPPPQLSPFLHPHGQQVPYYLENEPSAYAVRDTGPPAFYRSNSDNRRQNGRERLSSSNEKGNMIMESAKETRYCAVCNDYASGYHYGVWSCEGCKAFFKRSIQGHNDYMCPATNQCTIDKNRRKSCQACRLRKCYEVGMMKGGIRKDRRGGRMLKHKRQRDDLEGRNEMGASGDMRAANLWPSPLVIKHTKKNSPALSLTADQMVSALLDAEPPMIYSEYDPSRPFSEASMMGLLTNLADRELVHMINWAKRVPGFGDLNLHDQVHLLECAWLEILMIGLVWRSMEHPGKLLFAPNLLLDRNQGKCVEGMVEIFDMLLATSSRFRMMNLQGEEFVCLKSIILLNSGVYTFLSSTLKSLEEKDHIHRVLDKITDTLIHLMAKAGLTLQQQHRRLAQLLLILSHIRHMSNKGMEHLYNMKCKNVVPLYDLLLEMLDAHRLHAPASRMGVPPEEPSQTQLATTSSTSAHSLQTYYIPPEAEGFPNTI
UniProt P03372, whole entry: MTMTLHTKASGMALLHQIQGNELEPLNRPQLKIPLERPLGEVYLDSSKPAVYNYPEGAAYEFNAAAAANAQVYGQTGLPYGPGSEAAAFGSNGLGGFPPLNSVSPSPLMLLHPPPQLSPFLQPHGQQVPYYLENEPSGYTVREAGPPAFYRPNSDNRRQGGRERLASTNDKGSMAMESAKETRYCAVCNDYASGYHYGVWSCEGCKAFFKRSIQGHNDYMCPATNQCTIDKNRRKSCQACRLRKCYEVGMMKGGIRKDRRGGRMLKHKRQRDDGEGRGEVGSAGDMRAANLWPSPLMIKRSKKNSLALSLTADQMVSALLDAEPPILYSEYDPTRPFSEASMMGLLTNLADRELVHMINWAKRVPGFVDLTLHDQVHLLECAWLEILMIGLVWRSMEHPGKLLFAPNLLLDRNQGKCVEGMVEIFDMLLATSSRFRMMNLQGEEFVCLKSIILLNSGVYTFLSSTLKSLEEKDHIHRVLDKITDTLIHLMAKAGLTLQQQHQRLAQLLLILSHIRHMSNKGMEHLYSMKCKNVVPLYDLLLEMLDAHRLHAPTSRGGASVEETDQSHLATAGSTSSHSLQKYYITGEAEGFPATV

Tests used:
[1] = target: T1, ERβ (Homo sapiens, UniProt Q92731); experiment: ER luciferase transcriptional activation assay in transfected HEK-293 cells, hERβ; conditions: read-out: hERβ EC50, nM (95% CI)
[2] = target: mouse ERβ (Mus musculus, UniProt O08537); experiment: ER luciferase transcriptional activation assay in transfected HEK-293 cells, mERβ; conditions: read-out: mERβ EC50, nM (95% CI)
[3] = target: T1, ERβ; experiment: Estrogen receptor radioligand binding assay, hERβ; set-up: expressed in transfected cells
Protocol: Estrogen Receptor Radio Ligand Binding Assays. […] Briefly, ERα and ERβ were obtained from recombinant insect Sf9 cells overexpressing either human receptor. [^3H] Estradiol (0.5 nM) and Diethylstilbestrol (1 μM) were used as radio-ligand and ER binding ligand positive controls, respectively. To determine the IC50, each analog was tested at several concentrations depending on the receptor being challenged. The test concentrations ranged from 1 pM-10 μM for ERβ, and 10 pM-100 μM for ERα and were performed in duplicate. The IC50 values were determined by non-linear least squares regression analysis using MathIQ™ (ID Business Solutions Ltd., UK). […] The Hill coefficients of the competition curves were calculated using MathIQ™.

[4] = Simulated pharmacokinetics at uterotrophic ED50 dose
[5] = Mouse PO pharmacokinetic study; conditions: absolute bioavailability
[6] = target: mouse ERα (Mus musculus, UniProt P19785); experiment: ER luciferase transcriptional activation assay in transfected HEK-293 cells, mERα; conditions: read-out: mERα EC50, nM (95% CI), transactivation
[7] = target: T2, hERα (Homo sapiens, UniProt P03372); experiment: Estrogen receptor radioligand binding assay, hERα; conditions: [3H]estradiol competition, recombinant human receptor from Sf9 cells
[8] = target: T2, hERα; experiment: ER luciferase transcriptional activation assay in transfected HEK-293 cells, hERα; format: cell-based; set-up: expressed in transfected cells; host or cells: HEK-293 (CRL-1573, ATCC), transient transfection with pcDNA3-hERα and pGL4.26-3×ERE; conditions: transactivation
[9] = simulated at uterotrophic ED50 oral dose

Substance: 1-(4-hydroxyphenyl)-7-((2-hydroxyethyl)thio)-1,7-dicarba-closododecaborane [Compound 8]
EC50 [1]: 44.9 nM | EC50 [2]: 1 nM | Ki [3]: 0.5 nM | Uterotrophic ED50 AUC0-24hr [4, 9]: >5.2 µM·h | Uterotrophic ED50 Cmax [4, 9]: >1500 nM and 1500 nM | F (%) ([5]; PO 100 mg/kg): 1.2%

Substance: 1-(4-hydroxyphenyl)-7-(methylthio)-1,7-dicarba-closododecaborane [Compound 10]
Uterotrophic ED50 AUC0-24hr [4]: 1.4 µM·h | Uterotrophic ED50 Cmax [4]: 900 nM | Uterotrophic ED50 AUC0-24hr [4, 9]: 1.4 µM·h

Substance: 1-(4-hydroxyphenyl)-7-(propylthio)-1,7-dicarba-closododecaborane [Compound 7]
Uterotrophic ED50 AUC0-24hr [4, 9]: 2.4 µM·h | Uterotrophic ED50 Cmax [4, 9]: 1500 nM | F (%) ([5]; PO 10 mg/kg): 5.5%

EC50 [6]: 124 nM | EC50 ([1]; transactivation, HEK-293): 97.2 nM | EC50 ([2]; transactivation, HEK-293): 70.4 nM | Ki [7]: 22 nM | Ki ([3]; [3H]estradiol competition, recombinant human receptor from Sf9 cells): 12.7 nM | EC50 ([8]; read-out: hERα EC50, nM (95% CI), HEK-293): > 10000 nM | EC50 ([8]; read-out: hERα EC50, μM (95% CI), as listed in Tables 7A/7B): > 30000 nM
Substance: 1-(4-hydroxyphenyl)-12-(3-phenylpropyl)-1,12-dicarba-closododecaborane [Compound 4]

Substance: 1-(4-hydroxyphenyl)-12-((2-(2-hydroxyethoxy)ethyl)thio)-1,12-dicarbaclosododecaborane [Compound 3]
Uterotrophic ED50 AUC0-24hr [4, 9]: 1 µM·h and 1.0 µM·h | F (%) ([5]; PO 3 mg/kg): 11.9%

Substance: 1-(4-hydroxyphenyl)-12-(hexylthio)-1,12-dicarba-closododecaborane [Compound 2]
Uterotrophic ED50 AUC0-24hr [4, 9]: 11 µM·h | Uterotrophic ED50 Cmax [4, 9]: 800 nM | F (%) ([5]; PO 10 mg/kg): 41.7%

Substance: 1-(4-hydroxyphenyl)-12-(phenethylthio)-1,12-dicarba-closododecaborane [Compound 5]
Uterotrophic ED50 AUC0-24hr [4, 9]: 2.3 µM·h | Uterotrophic ED50 Cmax [4, 9]: 300 nM | F (%) ([5]; PO 10 mg/kg): 13.5%

Several values for one entry are separate records, joined by “and”; a condition that tells them apart may be missing. Equal entries are not always repeated. Where two headings read alike, the source gives them in different places. Each block holds one substance with its values, some of them ahead of it.
